What was measured:
[1] = molecular target: T1, cephalosporin esterase (Rhodotorula toruloides, UniProt O42728); test: Effect of various enzyme modulators; conditions: 10 mM reagent, 15 minutes at 25° C., diluted 100 fold, assayed with p-nitrophenyl acetate
[2] = molecular target: T1, cephalosporin esterase; test: Esterase activity on p-nitrophenyl ester substrates, absorbance at 405 nm; conditions: 10.0 mM p-nitrophenyl esters, 100 mM potassium phosphate pH 6.5, 2% acetonitrile, 30° C.
[3] = in fermentation broth, cited from earlier work
[4] = molecular target: T1, cephalosporin esterase; test: Esterase activity on cephalosporin substrates, monitored by HPLC

Compound: NC(=O)CI
- Effect on enzyme activity [1]: little or no effect

Compound: CCN1C(=O)C=CC1=O
- Effect on enzyme activity [1]: little or no effect

Compound: β-mercaptoethanol
- Effect on enzyme activity [1]: slight activation

Compound: CC(=O)Oc1ccc([N+](=O)[O-])cc1
- Relative Activity (%) [2]: 100%

Compound: CC(=O)OCC1=C(C(=O)O)N2C(=O)[C@@H](NC(=O)CCC[C@@H](N)C(=O)O)[C@H]2SC1
- Loss by non-enzymatic breakdown to compound X [3]: approximately 40%
- Time to complete hydrolysis ([4]; 1.0% solution of cephalosporin C, 30° C., no side products by HPLC): ≤ 30 min
- Vmax ([4]; hydrolysis of cephalosporin C, pH 6.5, 30° C.): 77.0 µmol/min/mg
- Km ([4]; read-out: Km for hydrolysis of cephalosporin C, from double reciprocal plots, 100 mM potassium phosphate pH 6.5, 30° C.): 51.8 mM

Compound: O[C@H](CS)[C@H](O)CS
- Effect on enzyme activity [1]: slight activation

Compound: O=c1oc(Cl)c(Cl)c2ccccc12
- Effect on enzyme activity [1]: inhibited the enzyme

Compound: CCOC(=O)OC(=O)OCC
- Effect on enzyme activity [1]: essentially inactivated the enzyme

Compound: desacetylcephalosporin C
- Resistance to non-enzymatic breakdown ([3]; compared with cephalosporin C): far more resistant
- Inhibition of the reaction by reaction products ([4]; hydrolysis of cephalosporin C): did not inhibit the reaction to any appreciable extent

Compound: O=S(=O)(F)Cc1ccccc1
- Effect on enzyme activity [1]: inhibited the enzyme

Compound: EDTA
- Effect on enzyme activity [1]: slight inhibition

Compound: acetate
- Inhibition of the reaction by reaction products ([4]; hydrolysis of cephalosporin C): did not inhibit the reaction to any appreciable extent

From patent publication US20020048781A1, “Direct production of desacetylcephalosporin C” (published 2002)
